From PubChem BioAssay AID686971 (National Center for Advancing Translational Sciences (NCATS), 2013) come the findings set out here.

Only a part is listed here, and it is no random draw. Inconclusive results are not listed. Entries that show only a call come without a potency. Calls of active or inactive are those of the source. The call rests on the fitted dose curve; in most records, active means well fitted cell-killing curve with a large enough effect; inconclusive means small, poorly fitted or top-dose-only effect, or effect the other way, or another doubt; inactive means no such curve, though single readings can be large or run the other way.
Potency means the concentration at half of the fitted maximal effect.

This experiment is described as follows: qHTS for induction of synthetic lethality in tumor cells producing 2HG: qHTS for the HT-1080-IDH1KD cell line. Particulars: HT-1080 IDH1 knockdown viability, ATP luminescence, 48 h; series mostly up to 46.1 µM.
Turning to `Cc1c2c(nc3ccccc13)SC(C(Cl)Cl)C2` (centres undefined), the Potency entry is “inactive”. For `Cc1cc(=O)[nH]c(N[N+](=O)[O-])n1` the value was “inactive”.

For `O=P1(N(CCCl)CCCl)OCCCN1CCCl` (centres undefined), the Potency result was “inactive”. As for `O=P1(N(CCCl)CCCl)Nc2ccccc2N1`, the Potency result is “inactive”. For `COc1ccc2nc(NP(=O)(c3ccccc3)c3ccccc3)sc2c1` the value was “inactive”; for `COc1cc(I)ccc1[As](=O)(O)O`, “inactive”. For the compound `O=[N+]([O-])c1cc(Oc2ccc([N+](=O)[O-])cc2C(F)(F)F)cc([N+](=O)[O-])c1`, the Potency entry was “inactive”. Turning to `COc1ccc(N/C(=N/P(=O)(N2CCOCC2)N2CCOCC2)N2CCOCC2)cc1`, the Potency result is “inactive”. To `O=[As](O)(c1ccc(O)cc1)c1ccccc1O` belongs “inactive”; to `C[As](=O)(O)c1cccc(C(=O)O)c1`, “inactive”. As to `Cc1ccc(OP(=O)(Nc2ccc([N+](=O)[O-])cn2)Oc2ccc(C)cc2)cc1`, the Potency result is “inactive”. Take `Cc1ccc2nc3c(c(C)c2c1)CC(C(Cl)Cl)S3` (centres undefined): the Potency entry was “inactive”. In the case of `ClCCSc1nnc(-c2cccnc2)o1`, the Potency entry is “inactive”. With `CC(C)c1ccc(OP(=O)(Nc2ccccn2)Oc2ccccc2F)cc1` (centres undefined), the Potency result is “inactive”. On to `COC(=O)C1(C)COP(=O)(N2CCCCCC2)OC1` (centres undefined), for which the Potency entry was “inactive”. For `CCN(CC)C(=S)SC(NC=O)C(Cl)(Cl)Cl` (centres undefined) the value was “inactive”; for `O=C(OC1CN2CCC1CC2)c1cccc2[nH]cnc12` (centres undefined), “inactive”; for `CC(C)NC(=O)NP(=O)(Oc1ccccc1)Oc1ccccc1`, “inactive”. To `CCOC(=O)Nc1ccc([As](=O)(O)O)c(O)c1` belongs “inactive”; to `O=C(O)C(O)c1ccc(N(CCCl)CCCl)cc1` (centres undefined), “inactive”. As for `CC1CCNP(=O)(N(CCCl)CCCl)O1` (centres undefined), the Potency entry was “inactive”.

Take `COP(=O)(OC)N1CC1c1ccccc1` (centres undefined): the Potency result is “inactive”.

For `Cc1cc(SC(NC(=O)c2ccccc2)C(Cl)(Cl)Cl)nc(C(C)C)n1` (centres undefined), the Potency result was “inactive”.

`O=P(Nc1ccccn1)(c1cccc2ccccc12)c1cccc2ccccc12`: the Potency result was “inactive”. In the case of `Cc1cc(SC(NC=O)C(Cl)(Cl)Cl)ncn1` (centres undefined), the Potency result is “inactive”.

Take `O=[N+]([O-])c1ccc(Nc2ccc(Oc3ccc([N+](=O)[O-])cc3[N+](=O)[O-])cc2)c([N+](=O)[O-])c1`: the Potency entry is “inactive”. For `COP1(=S)c2c(C)nn(CCC#N)c2N=C(c2ccc(F)cc2)N1C` (centres undefined), the Potency entry was “inactive”. As for `O=C(O)C(=O)c1ccc(N(CCCl)CCCl)cc1`, the Potency result was “inactive”. For `O=C(COc1ccccc1)OC1CN2CCC1CC2` (centres undefined) the value was “inactive”. Regarding `O=C(Nc1ccncc1[N+](=O)[O-])c1ccc([N+](=O)[O-])cc1[N+](=O)[O-]`, the Potency result was “inactive”.

`O=C(OC1CN2CCC1CC2)c1cccc([N+](=O)[O-])c1` (centres undefined): the Potency entry is “inactive”.

Consider `CSc1ccc(Nc2c([N+](=O)[O-])cc([N+](=O)[O-])cc2[N+](=O)[O-])cc1`, for which the Potency was active: 16.4 µM. To `CCOC(=O)c1ccc(NC(=O)C(C)(CCl)SC)cc1` (centres undefined) belongs “inactive”; to `CCC(C)N(CC(C)C)C(=S)SC(NC(C)=O)C(Cl)(Cl)Cl` (centres undefined), “inactive”. For `O=P1(Nc2ccccn2)COc2ccccc2OC1` the value was “inactive”; for `CCOP(=O)(NC(=NC(C)c1ccccc1)NC(C)c1ccccc1)OCC` (centres undefined), “inactive”.

For `CN(CCCl)Cc1cc(Cl)c(NC2=NCCN2)c(Cl)c1`, the Potency entry was “inactive”. To `CCOP(=O)(Nc1ccc(C)cn1)OCC` belongs “inactive”; to `O=P1(N(CCCl)CCCl)NCCC(C(F)(F)F)O1` (centres undefined), “inactive”.

With `Clc1n[nH]nc1-c1nn[nH][15n]1`, the Potency entry is “inactive”. As to `CC(C)(C)C(=O)NC(Sc1ncccn1)C(Cl)(Cl)Cl` (centres undefined), the Potency entry is “inactive”. Consider `COc1ccccc1CNC(=O)COC(=O)C(O)(c1ccccc1)c1ccccc1`, for which the Potency entry was “inactive”. To `CC(C)/C=N\N=C(\N)N[N+](=O)[O-]` belongs “inactive”; to `CN(C(=O)Cc1ccc(Cl)c(Cl)c1)[C@@H]1CCCC[C@H]1N1CCCC1`, “inactive”. As for `CC1(CBr)Cn2c(nc3ccccc3c2=O)S1` (centres undefined), the Potency result is “inactive”.

In the case of `Cc1nn(-c2ccccc2)c2c1P(=O)(N1CCOCC1)N(C)C(c1ccccc1)=N2` (centres undefined), the Potency result is “inactive”. For the compound `Cc1ccc(C(=O)OC2CN3CCC2CC3)cc1` (centres undefined), the Potency entry is “inactive”. To `O=C(/C=C/c1ccccc1)OC1CN2CCC1CC2` (centres undefined) belongs “inactive”; to `CCCC1OP(=O)(Nc2ccccc2)OCC1CC` (centres undefined), “inactive”; to `Cc1ccc(S(=O)(=O)N(CCCN)CCCc2c(C)nc(N)[nH]c2=O)cc1`, “inactive”. For `O=P1(Nc2ncccn2)COc2ccccc2OC1` the value was “inactive”; for `Nc1cccc([As](=O)(O)c2ccccc2)c1`, “inactive”. On to `O=P1(Nc2ccc(Br)cn2)COc2ccccc2OC1`, for which the Potency entry was “inactive”. For `NS(=O)(=O)c1cccc(NC(=O)COC(=O)C(O)(c2ccccc2)c2ccccc2)c1` the value was “inactive”; for `Cc1ccc(OCC(=O)OC2CN3CCC2CC3)cc1` (centres undefined), “inactive”. To `O=[As](O)(c1cccs1)c1cccs1` belongs “inactive”; to `CCOP1(=S)c2c(C)nn(CCC#N)c2N=C(c2ccccc2F)N1C` (centres undefined), “inactive”. For `O=P(Nc1nccs1)(c1ccccc1)c1nc2ccccc2s1` (centres undefined) the value was “inactive”; for `O=P(Nc1nccs1)(Oc1ccccc1)Oc1ccccc1`, “inactive”; for `CS(=O)(=O)c1cc([N+](=O)[O-])c2no[n+]([O-])c2c1`, “inactive”. As for `Nc1ccccc1[As](=O)(O)c1ccccc1`, the Potency result was “inactive”.

For `O=C(O)COc1ccc([As](=O)(O)O)cc1[N+](=O)[O-]`, the Potency entry was “inactive”. To `NC(=O)Nc1ccc([As](=O)(O)O)cc1` belongs “inactive”; to `N#CCCN(C(=O)COC(=O)C(O)(c1ccccc1)c1ccccc1)c1ccc(F)cc1`, “inactive”. For `CN(C(=O)Cc1ccccc1)[C@@H]1CC[C@]2(CCCO2)C[C@H]1N1CCCC1` the value was “inactive”; for `CCOP1(=S)c2c(C)nn(CCC#N)c2N=C(c2ccc(F)cc2)N1C` (centres undefined), “inactive”; for `CN(C)C(=O)c1cc([N+](=O)[O-])cc2c1-c1c(cc([N+](=O)[O-])cc1[N+](=O)[O-])C2=O`, active: 8.2 µM.

As for `O=[N+]([O-])c1ccc2c(c1)nnn2O`, the Potency entry is “inactive”.

In the case of `CN(C(=O)Cc1ccc(Cl)c(Cl)c1)[C@H]1CC[C@@]2(CCCO2)C[C@@H]1N1CCCC1`, the Potency entry was “inactive”. Take `O=C(OC1CN2CCC1CC2)c1ccc(Cl)cc1` (centres undefined): the Potency entry was “inactive”. To `O=[As](O)(O)c1cccnc1` belongs “inactive”. With `CS(=O)(=O)c1ccc(Cl)c(NC(=O)COC(=O)C(O)(c2ccccc2)c2ccccc2)c1`, the Potency result was “inactive”. To `O=[As](O)(c1cccc(O)c1)c1cccc(O)c1` belongs “inactive”. To `Cc1cccc(OCC(=O)OC2CN3CCC2CC3)c1` (centres undefined) belongs “inactive”. To `Cc1ccc(NCCc2c([N+](=O)[O-])cc([N+](=O)[O-])cc2[N+](=O)[O-])cc1` belongs “inactive”.

`Nc1cccc2c([As](=O)(O)O)cccc12`: the Potency entry is “inactive”. To `CCCOP(=S)(Nc1nc(N)cc(=O)[nH]1)OCCC` belongs “inactive”; to `COc1cc(C2NCCC3(OCCO3)C2(C)C)cc(OC)c1OC` (centres undefined), “inactive”.

With `CCOP(=O)(Nc1cccc2ccccc12)OCC`, the Potency result was “inactive”. For the compound `O=P1(Nc2nc3ccc(Cl)cc3s2)COc2ccccc2O1` (centres undefined), the Potency result is “inactive”. To `CCOc1ccc(C2=NCC(CBr)S2)cc1` (centres undefined) belongs “inactive”.

As to `CC(C)(C)C(=O)NC(Sc1ccccc1)C(Cl)(Cl)Cl` (centres undefined), the Potency entry is “inactive”.

As for `CCc1cc(O)c([N+](=O)[O-])c(C)c1[N+](=O)[O-]`, the Potency result is “inactive”. `Cc1ccccc1CN(C)C(=O)COC(=O)C(O)(c1ccccc1)c1ccccc1`: the Potency result is “inactive”. For `C[C@@H]1C=CCP(=O)(Oc2ccccc2)O1` (some centres undefined) the value was “inactive”; for `C[C@H]1OP(=O)(Oc2ccccc2)C[C@@H]2O[C@@H]21` (some centres undefined), “inactive”. To `N#C/C(=C\c1ccc(N(CCBr)CCBr)cc1)C(N)=O` belongs “inactive”.

For `CC(=O)c1ccc(N2CC2c2ccncc2)cc1` (centres undefined), the Potency entry is “inactive”.

Take `COC(=O)C1(C)COP(=O)(NCc2ccccc2)OC1` (centres undefined): the Potency result is “inactive”. In the case of `CC(=O)Nc1ccc([As](=O)(O)O)c(O)c1`, the Potency entry was “inactive”. For the compound `CC(=O)Nc1ccc(Oc2c([N+](=O)[O-])cc([N+](=O)[O-])cc2[N+](=O)[O-])cc1`, the Potency result was “inactive”. To `c1ccc(-c2nn[nH]n2)c(-c2nn[nH]n2)c1` belongs “inactive”. For the compound `Cc1ccc(NP(=O)(Oc2cccc(C)c2)Oc2cccc(C)c2)nc1`, the Potency result is “inactive”. Consider `CCNC(=S)/N=C(\N)N[N+](=O)[O-]`, for which the Potency entry is “inactive”. Consider `O=C(NC1CCS(=O)(=O)C1)NP(=S)(Oc1ccccc1)Oc1ccccc1` (centres undefined), for which the Potency result is “inactive”. Regarding `O=P1(N(CCCl)CCCl)OCCC2CCCCN21` (centres undefined), the Potency result is “inactive”. For `O=C(OC1CN2CCC1CC2)c1ccccc1` (centres undefined) the value was “inactive”. For `CCC(=O)N1C2C3N(C(=O)CC)C1C1N(C(=O)CC)C(C(N1C(=O)CC)N3C(=O)CC)N2C(=O)CC` the value was “inactive”. To `COC(=O)c1cc2c(s1)N=C(c1ccccc1)N(C)P2(=O)N1CCOCC1` (centres undefined) belongs “inactive”. Take `CC(=O)NC(SC(=S)N(CC(C)C)CC(C)C)C(Cl)(Cl)Cl` (centres undefined): the Potency entry was “inactive”. For `Cc1ccc(OP(=O)(Nc2ccccn2)Oc2ccc(C)cc2)cc1` the value was “inactive”. As to `Cc1ccccc1OP(=O)(Nc1ccccn1)Oc1ccccc1C`, the Potency result is “inactive”. Regarding `CC(NC(=O)COC(=O)C(O)(c1ccccc1)c1ccccc1)c1ccccc1` (centres undefined), the Potency entry was “inactive”.

As for `CN(C)C(=O)Oc1noc2ccccc12`, the Potency result is “inactive”. For the compound `O=c1c2cc([N+](=O)[O-])ccc2[nH]c2c([N+](=O)[O-])cc([N+](=O)[O-])cc12`, the Potency was active: 2.59 µM.

Take `Nc1ccc(CCCCOc2ccccc2)cc1`: the Potency entry is “inactive”. Turning to `COc1ccc(N)c([N+](=O)[O-])c1[N+](=O)[O-]`, the Potency entry is “inactive”. Regarding `O=P(Nc1nc2ccccc2s1)(c1ccccc1)c1ccccc1`, the Potency entry is “inactive”. For `C[C@H]1OP(=O)(Oc2ccccc2)[C@H](O)[C@H](O)[C@H]1N=[N+]=[N-]` (some centres undefined) the value was “inactive”. Take `O=[As](O)(c1ccccc1)c1ccc(O)cc1`: the Potency result was “inactive”. With `CC(=O)NC(SC(=S)N(C)C)C(Cl)(Cl)Cl` (centres undefined), the Potency result was “inactive”. On to `O=[N+]([O-])c1ncn(CCn2cnc([N+](=O)[O-])n2)n1`, for which the Potency entry is “inactive”.

Regarding `O=C(OC1CN2CCC1CC2)c1cccc(Cl)c1` (centres undefined), the Potency result is “inactive”.

Take `Nc1ccc([As](=O)(O)c2ccc([N+](=O)[O-])cc2)cc1`: the Potency entry was “inactive”.

Turning to `C(Cc1nn[nH]n1)Cc1nn[nH]n1`, the Potency result was “inactive”. Turning to `CC(C)C(=O)NC(Sc1ccccc1)C(Cl)(Cl)Cl` (centres undefined), the Potency entry is “inactive”. To `O=P(Nc1nccs1)(c1ccccc1)c1ccccc1` belongs “inactive”; to `c1nnnn1CCn1cnnn1`, “inactive”. For `COc1ccc(C2=NCC(CBr)S2)cc1` (centres undefined) the value was “inactive”.
